Target: Substance-P receptor (Homo sapiens, UniProt P25103)
Experiment: Binding affinity towards Tachykinin receptor 1 in human IM-9 cells using [3H]-substance P as ligand
Assay type: cell-based
Outline: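 Displacement of [³H]SP (0.5 nM final) from human IM-9 cell preparation in 50 mM TRIS-HCl pH 7.7 with MnCl2, BSA, bacitracin, leupeptin, […], phosphoramidon; 20 min, room temperature, dark. Filtration on polyethylenimine-soaked GF/B filters, scintillation counting. IC50 from six-point curves, duplicates; mean ± SEM of three experiments.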

Amino acid sequences for entries named in this document (tags omitted).
UniProt P25103, whole entry: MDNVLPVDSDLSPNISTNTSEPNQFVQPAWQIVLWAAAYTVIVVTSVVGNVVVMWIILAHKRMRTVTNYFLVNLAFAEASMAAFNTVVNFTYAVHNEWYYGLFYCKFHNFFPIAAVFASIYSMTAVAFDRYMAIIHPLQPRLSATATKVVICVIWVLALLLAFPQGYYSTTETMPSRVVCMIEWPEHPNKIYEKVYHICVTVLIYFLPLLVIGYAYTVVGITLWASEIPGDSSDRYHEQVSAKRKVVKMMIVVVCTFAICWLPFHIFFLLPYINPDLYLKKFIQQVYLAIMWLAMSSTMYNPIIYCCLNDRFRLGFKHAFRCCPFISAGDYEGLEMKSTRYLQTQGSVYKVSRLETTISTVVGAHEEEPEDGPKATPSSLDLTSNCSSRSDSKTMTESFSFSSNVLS

SMILES	IC50 [µM]
Clc1ccccc1CN[C@H]1C2CCN(CC2)[C@H]1C(c1ccccc1)c1ccccc1	0.0333
Clc1cccc(CN[C@H]2C3CCN(CC3)[C@H]2C(c2ccccc2)c2ccccc2)c1	28

Reference: ChEMBL document CHEMBL1125478, “The discovery of (2S,3S)-cis-2-(diphenylmethyl)-N-[(2-methoxyphenyl)methyl]-1- azabicyclo[2.2.2]-octan-3-amine as a novel, nonpeptide substance P antagonisst” (J Med Chem, 1992)
